The entries are a selection whose mix differs from that of the whole data set.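 Method: cells in 96-well plates; compound added at one concentration; 48 h incubation; percent growth measured; values under 10 scored active.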 Activity calls are given as the source filed them.
Legend:
Assay in all cases: NCI-60 one-dose screen, 48 h (100 = growth as untreated, 0 = no growth, -100 = all killed)
Details in all cases: 10 µM
NCI/ADR-RES ovarian = tested on: NCI/ADR-RES ovarian
T-47D breast = tested on: T-47D breast
BT-549 breast = tested on: BT-549 breast
MDA-MB-435 melanoma = tested on: MDA-MB-435 melanoma
SW-620 colon = tested on: SW-620 colon
MCF7 breast = tested on: MCF7 breast
HCT-116 colon = tested on: HCT-116 colon
KM12 colon = tested on: KM12 colon
HCC-2998 colon = tested on: HCC-2998 colon

Measured: growth

O=c1[nH]cc(CN(CCCl)CCCl)c(=O)[nH]1
inactive: NCI/ADR-RES ovarian 105% | T-47D breast 101% | BT-549 breast 100% | MDA-MB-435 melanoma 104% | SW-620 colon 96.9% | MCF7 breast 99.4% | HCT-116 colon 102% | KM12 colon 103%

Cc1cccc(NC2(C#N)CCN(Cc3ccccc3)CC2)c1
inactive: NCI/ADR-RES ovarian 113% | T-47D breast 102% | BT-549 breast 93.8% | MDA-MB-435 melanoma 106% | SW-620 colon 106% | MCF7 breast 95.7% | HCT-116 colon 102% | HCC-2998 colon 109% | KM12 colon 106%

Fc1cccc(CBr)c1
inactive: NCI/ADR-RES ovarian 107% | T-47D breast 90.6% | BT-549 breast 96.8% | MDA-MB-435 melanoma 99.3% | SW-620 colon 101% | MCF7 breast 99.2% | HCT-116 colon 107% | HCC-2998 colon 106% | KM12 colon 102%

Cc1ccc(CN(CCCl)CCCl)cc1C
inactive: NCI/ADR-RES ovarian 106% | T-47D breast 89.9% | BT-549 breast 97.9% | MDA-MB-435 melanoma 101% | SW-620 colon 99.4% | MCF7 breast 86.4% | HCT-116 colon 94.1% | HCC-2998 colon 96% | KM12 colon 99.7%

ClCCSC(SCCCl)=C(SCCCl)SCCCl
inactive: NCI/ADR-RES ovarian 75.5% | BT-549 breast 73.6% | MDA-MB-435 melanoma 102% | SW-620 colon 77.1% | MCF7 breast 47.9% | HCT-116 colon 73.6% | HCC-2998 colon 85.9% | KM12 colon 92.6%

Cc1ccc(NC2(C#N)CCN(Cc3ccccc3)CC2)cc1
inactive: NCI/ADR-RES ovarian 106% | T-47D breast 87.4% | BT-549 breast 96% | MDA-MB-435 melanoma 96.4% | SW-620 colon 107% | MCF7 breast 103% | HCT-116 colon 92.2% | HCC-2998 colon 95.7% | KM12 colon 109%

Cc1ccc(NC2(C(N)=O)CCN(Cc3ccccc3)CC2)cc1
inactive: NCI/ADR-RES ovarian 103% | T-47D breast 104% | BT-549 breast 106% | MDA-MB-435 melanoma 101% | SW-620 colon 106% | MCF7 breast 107% | HCT-116 colon 109% | HCC-2998 colon 105% | KM12 colon 112%

COc1cc(CN(CCCl)CCCl)cc(OC)c1
inactive: NCI/ADR-RES ovarian 101% | T-47D breast 89.4% | BT-549 breast 96.3% | MDA-MB-435 melanoma 102% | SW-620 colon 98.8% | MCF7 breast 87.2% | HCT-116 colon 93.5% | HCC-2998 colon 95.6% | KM12 colon 108%

Cc1ccccc1NC1(C#N)CCN(Cc2ccccc2)CC1
inactive: NCI/ADR-RES ovarian 103% | T-47D breast 98.9% | BT-549 breast 87.7% | MDA-MB-435 melanoma 110% | SW-620 colon 102% | HCT-116 colon 98.2% | HCC-2998 colon 95.7% | KM12 colon 104%

BrCCN(CCBr)c1ccc2c(c1)Cc1ccccc1-2
inactive: NCI/ADR-RES ovarian 42.7% | T-47D breast 42.8% | MDA-MB-435 melanoma 52.4% | SW-620 colon 41.8% | MCF7 breast 19.8% | HCT-116 colon 32.9% | HCC-2998 colon 71% | KM12 colon 54.4%

From PubChem BioAssay (NCI)
